Values of other authors, collected in patent US11452768B2, “Combination therapy with neoantigen vaccine” (The Broad Institute Inc., priority 2013, dated 2022).

System: metastatic ccRCC
Details: human, in vivo

HD-IL2: high dose interleukin-2
Durable complete remission rate: 7%
